# Binding of CDR-mutated scFvs to a peptide of the spike HR2 region

Antigen: PDVDLGDISGINAS, a 14-residue peptide of the SARS-CoV-2 spike HR2 region.

The variants keep the light chain, the linker and the frameworks of Ab-14 (scFv order VH, a 15-residue (Gly4Ser)3 linker, VL).
VH: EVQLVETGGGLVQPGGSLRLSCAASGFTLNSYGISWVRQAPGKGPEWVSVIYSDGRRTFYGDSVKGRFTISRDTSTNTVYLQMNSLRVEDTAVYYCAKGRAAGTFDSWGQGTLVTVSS
VL: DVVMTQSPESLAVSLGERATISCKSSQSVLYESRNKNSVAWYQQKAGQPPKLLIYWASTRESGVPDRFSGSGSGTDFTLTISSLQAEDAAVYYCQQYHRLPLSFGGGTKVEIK

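Phage display of a naive human antibody library on the peptide gave the parent. Library AAYL49 holds single substitutions and randomly drawn double and triple substitutions in the CDRs. In AlphaSeq, yeast of one mating type display the scFv and yeast of the other type display the target. Binding brings cells together so that they mate, and sequencing counts the barcode pairs among the diploids. Each replicate has its own calibration line, from reference interactions of the BCL2 family. Mating was done three times.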

Variants are written as CDR1, CDR2 and CDR3 of the heavy chain (limits as in the source). Parent: GFTLNSYGIS, VIYSDGRRTFYGDSVK, GRAAGTFDS. The read-out is the apparent dissociation constant on a log10 scale (nM): the lower, the stronger. Averages over replicates are reported, and they cover detected replicates only. An entry "no signal" has no value in the source: the pair was not observed among the diploids in any replicate. This suggests poor binding but is not conclusive.

| # | CDR-H1 | CDR-H2 | CDR-H3 | mean, log10 nM | seen in | control signals |
|---|---|---|---|---|---|---|
| 1 | GFTLNSYGIS | VIQSDGRRTFYGDSQK | GRAAGCFDS | 5.28 | 2/3 | 4/9 |
| 2 | GFTLNSYGIS | AIYSDGRRTMYGDSVH | GRAAGTFDS | 3.81 | 2/3 | 3/9 |
| 3 | GFELNSYGIS | VIYSDGRATFYGDSVK | GRAAGTFDS | 2.92 | 1/3 | 0/9 |
| 4 | GFTLNSYGIS | VIYSDGEMTFYGDSVK | GRLAGTFDS | 4.04 | 1/3 | 1/9 |
| 5 | GFTLNSYGIS | VIHSDGRRCFYGDSVK | GRAAGKFDS | 3.65 | 3/3 | 0/9 |
| 6 | GFTLNAYGIS | VIYSDGRRTFYGDSVK | GRAAGTFHS | 3.60 | 1/3 | 0/9 |
| 7 | GFTLRSYGIS | VDYSDGRRTFYADSVK | GRAAGTFDS | 3.64 | 1/3 | 2/9 |
| 8 | QFTLNSYGIS | VIYSDGRRTFYWDSVK | RRAAGTFDS | no signal | 0/3 | 2/9 |
| 9 | GFTLNSYGIS | VIYSDGRFTFYGDSVK | GWAFGTFDS | 3.79 | 2/3 | 2/9 |
| 10 | GFTLNNYGIS | VIYSDGRRTFYLDSVK | GFAAGTFDS | 1.64 | 3/3 | 4/9 |
| 11 | LFTLNSYGIS | VIYSDGRRTFYGLSVK | GRAAGTFDS | 3.73 | 3/3 | 2/9 |
| 12 | GFTLNSYGSS | VLYIDGRRTFYGDSVK | GRAAGTFDS | 4.43 | 1/3 | 1/9 |
| 13 | GFTINSYGIS | VIYTDGRRTFYGDSVK | GRAQGTFDS | 4.18 | 2/3 | 5/9 |
| 14 | GFTLNSYGIS | GIYSDGRRTFYGQMVK | GRAAGTFDS | 3.29 | 1/3 | 2/9 |
| 15 | DFTLNSYGIS | VIYSDGRRTFYGCSCK | GRAAGTFDS | 5.03 | 1/3 | 0/9 |
| 16 | GFTLNSYGIS | VIYSDGRRTFYGDIVK | AQAAGTFDS | no signal | 0/3 | 0/9 |
| 17 | GFTYNSWGIS | VIYSDGRRTFYGDSVK | GRAAGTNDS | 4.25 | 1/3 | 2/9 |
| 18 | GFTLNNYGIS | VIYSDGRRTYYGDSVK | GRATGTFDS | 0.49 | 3/3 | 2/9 |
| 19 | GFTLNSYGIS | VIYSDGRRTFYGFSVK | MWAAGTFDS | no signal | 0/3 | 2/9 |
| 20 | GFTLNSYGNS | VIYSDGRRQFYPDSVK | GRAAGTFDS | no signal | 0/3 | 0/9 |
| 21 | GFTLNSYGAS | VIYSDGRRTFYGDTVK | GRAASTFDS | no signal | 0/3 | 0/9 |
| 22 | GFTLNSYGIS | VIYSDGRRTFYGDSVI | GRAAYTFTS | no signal | 0/3 | 0/9 |
| 23 | GFTLNSYGIS | VIYSDGRRCFYGDVVP | GRAAGTFDS | 3.66 | 1/3 | 1/9 |
| 24 | GFFANSYGIV | VIYSDGRRTFYGDSVK | GRAAGTFDS | no signal | 0/3 | 2/9 |
| 25 | SFTLNSYGIS | VIYSDGRRTFYGDSFK | GRAAITFDS | no signal | 0/3 | 0/9 |
| 26 | GFTLNSYGIS | VIYSDGRRTFYGDEVK | GRAAGTFHF | no signal | 0/3 | 2/9 |
| 27 | GFTTNSYGIS | VIYSDGRRTFYPDSVK | GRAAGTADS | no signal | 0/3 | 2/9 |
| 28 | GFTLESYGIS | VDVSDGRRTFYGDSVK | GRAAGTFDS | no signal | 0/3 | 1/9 |
| 29 | GFTLNSSGIS | VIYMWGRRTFYGDSVK | GRAAGTFDS | no signal | 0/3 | 1/9 |
| 30 | GFTLNSQGIS | VIYSDGRRTFYGDSVK | GRAATTFDS | 3.21 | 1/3 | 1/9 |
| 31 | GFTLNSYGRA | VIYSDGRRTFYGMSVK | GRAAGTFDS | 4.26 | 1/3 | 5/9 |
| 32 | GFTLNTYGIS | VTYSDGRRTFYGDSVK | GRAAGTFDC | no signal | 0/3 | 1/9 |
| 33 | GFTPNSYGIS | VIYSDGRRTFYGDSNK | CRAAGTFDS | 3.73 | 1/3 | 0/9 |
| 34 | GFTLYSYGIS | VIYSDGRRTFYGDSKK | GRAQGTFDS | no signal | 0/3 | 1/9 |
| 35 | GFTLNSYGIS | VIYSDGRRKFYGDSVH | GREAGTFDS | 1.72 | 3/3 | 4/9 |
| 36 | GFTLMSYGIS | LIYSDGRRPFYGDSVK | GRAAGTFDS | 3.61 | 1/3 | 4/9 |
| 37 | GFTLNSYGIS | AIYSDGRRTFYGDSVK | MRAAGTEDS | 4.48 | 1/3 | 0/9 |
| 38 | GFTLNSYGIS | VIYSDGRRPPYGDSVK | GRAAGTFDC | no signal | 0/3 | 0/9 |
| 39 | GFTLNSYGPS | VIYSDDRRTFYGDSVK | GRAAGTFDT | no signal | 0/3 | 0/9 |
| 40 | GFTLNSYDIS | VQYSDGRRTFYADSVK | GRAAGTFDS | 4.64 | 2/3 | 5/9 |
| 41 | GFTLNSYGIS | RIYSDGRRYFYGDSVC | GRAAGTFDS | no signal | 0/3 | 0/9 |
| 42 | GFTLTSYGIS | VIYSDGRRTFTGDSVG | GRAAGTFDS | 4.62 | 1/3 | 3/9 |
| 43 | GFTLNSYGIS | VIYSWGRRTFYGDSVK | GRAAGTFDP | no signal | 0/3 | 2/9 |
| 44 | GFTLNSYGIS | VIYSDGFRTFYGDSVK | GGAAGTNDS | no signal | 0/3 | 1/9 |
| 45 | GFTLGSYGIS | VIYSDGRRTFYGDMVK | VRAAGTFDS | 4.35 | 1/3 | 0/9 |
| 46 | GFTLNSWGIS | VIYSDGRNTFYGDSVK | GRAAGTFDS | 3.53 | 1/3 | 0/9 |
| 47 | GFTLNSYGIS | VIYSDGRRTFYGDGVQ | GRLAGTFDS | 0.93 | 3/3 | 0/9 |

Again, the first 2 entries without any signal:

| CDR-H1 | CDR-H2 | CDR-H3 | mean, log10 nM | seen in | control signals |
|---|---|---|---|---|---|
| QFTLNSYGIS | VIYSDGRRTFYWDSVK | RRAAGTFDS | no signal | 0/3 | 2/9 |
| GFTLNSYGIS | VIYSDGRRTFYGDIVK | AQAAGTFDS | no signal | 0/3 | 0/9 |

Three control strains display no target. For library AAYL49, 15% of the pairings with them gave a signal, with a median of 4.06 and one signal in twenty below 2.83, so weak values seen in few replicates may be background. For each scFv, signals with the empty controls are counted beside the result.

Values reported by Engelhart et al. 2022, doi:10.1038/s41597-022-01779-4 (FLAb copy).